Patent US20040049009A1, “Methods for improving the antagonistic/agonistic properties of peptidic antagonists/agonists of the corticotropin-releasing factor receptor (crfr)” (priority 2000, published 2004)

What was measured:
[1] = molecular target: rat CRF receptor, type 1 (rat) (UniProt P35353); assay: SPA competition with 0.05 nM [125I-Tyr0]h/rCRF, HEK-293 membranes; 95% CI (330-400)
[2] = molecular target: mouse CRF receptor, type 2β (mouse) (UniProt Q60748); assay: SPA competition with 0.05 nM [125I-Tyr0]Svg, HEK-293 membranes; 95% CI (3.3-5.3)
[3] = molecular target: rat CRF receptor, type 1 (rat) (UniProt P35353); assay: SPA competition with 0.05 nM [125I-Tyr0]h/rCRF, HEK-293 membranes; 95% CI (52-69)

| IC50 [1] | IC50 [2] | IC50 [3] | Substance |
| --- | --- | --- | --- |
| 370 nM | – | – | anti-sauvagine-30 (peptide) |
| – | 4.3 nM | 61 nM | α-helical CRF^9-41 (peptide) |
